According to published antibiotic growth screens (doi:10.1038/s41589-023-01349-8):
The list shows a part of the results.

These molecules were tested on A. baumannii ATCC 17978 (assay: relative growth (fraction of control); higher = less inhibition). Conditions: 50 µM.
CN1CCN(C(=O)C[C@@H]2C=C[C@H](NC(=O)Cc3ccccn3)[C@H](CO)O2)CC1 gave a relative growth of 1.11. In the case of CCCNC(=O)N1C[C@H](O)COC[C@@H]2O[C@@H](CC(=O)NCc3ccncn3)CC[C@H]21, the relative growth is reported as 0.931. Molecule COC(=O)[C@@H](N)Cc1ccc(-n2cc(CCC(=O)NO)nn2)cc1 has a relative growth of 0.523. Molecule CC(=O)O[C@H]1C[C@@H](OC(C)=O)C(C)(C)C2C[C@@H](O)[C@]3(C)C(CC[C@@]4(C)[C@H](c5ccoc5)OC(=O)[C@H]5O[C@]543)[C@]21C (stereo partly drawn) has a relative growth of 1.16. Molecule C=C[C@H]1CCC=C2C(=O)CCC[C@@H]21 has a relative growth of 0.877. O=C(Nc1cc(C(F)(F)F)ccc1-n1cnc2ccccc21)c1ccc(S(=O)(=O)N2CCCC2)cc1 was tested, and the relative growth was 0.976. COc1ccc(S(=O)(=O)N(C)C[C@@H]2Oc3ccc(NC(=O)Nc4cccc(C(F)(F)F)c4)cc3CC(=O)N([C@@H](C)CO)C[C@@H]2C)cc1Cl gave a relative growth of 0.969. NCc1cn(Cc2ccc(Cl)c(Cl)c2)cn1 was tested, and the relative growth was 0.92. CNC(=O)c1cccc(NC(=S)NC)c1 showed a relative growth of 1.03. With Cn1c2c(c(=S)[nH]c1=O)CCC2 the relative growth was 1.07. For C[C@@H]1CC2C3CCC4=CC(=O)C=C[C@]4(C)[C@@]3(F)[C@@H](O)C[C@]2(C)[C@H]1C(=O)CO (stereo partly drawn), the relative growth was 0.907. Molecule CN1C(=O)N[C@@H]2c3ccccc3O[C@@]1(COC(=O)NCCCCCC(=O)NO)[C@@H]2COC(=O)c1ccccc1 has a relative growth of 0.956. CN1C(=O)c2cc(NC(=O)C3CCOCC3)ccc2OC[C@@H]2O[C@H](CC(=O)NCc3ccc4c(c3)OCO4)CC[C@@H]21 gave a relative growth of 1.03. Cc1ccc(S(=O)(=O)N2C[C@H](O)COC[C@@H]3O[C@H](CC(=O)NCCN4CCCCC4)CC[C@H]32)cc1 showed a relative growth of 0.917. With COc1ccc(CCN2C(=O)[C@@]3(Cc4ccccc42)c2ccccc2C(=O)N(Cc2ccccc2)[C@H]3c2ccc(COC(=O)NCCCCCC(=O)NO)cc2)cc1 the relative growth was 0.9. With CCc1cc(C(N)=O)c(N)s1 the relative growth was 0.959. O=C(Nc1nn[nH]n1)C1CCCCC1 showed a relative growth of 0.99. With COc1ccc(S(=O)(=O)N[C@@H]2CC[C@@H](CCNC(=O)CN3CCOCC3)O[C@H]2CO)cc1 the relative growth was 1.24. Work on Cc1ccccc1N1C(=O)c2cc(S(N)(=O)=O)c(Cl)cc2NC1C (stereo not drawn) yielded a relative growth of 1.13. For O=C(C[C@H]1C=C[C@@H](NC(=O)C2CC2)[C@@H](CO)O1)NCCCN1CCOCC1, the relative growth was 1.19. With O=C(O)CNC(=O)CN1C(=O)c2ccccc2C1=O the relative growth was 0.963. In the case of C[C@H](CCC(=O)O)[C@H]1CCC2C3C(CC[C@@]21C)[C@@]1(C)CC[C@@H](O)C[C@H]1C[C@H]3O (stereo partly drawn), the relative growth is reported as 1.02. CC(C)OC(=O)c1cn(Cc2c(F)cccc2F)c2sc(-c3ccc(NC(=O)C(C)C)cc3)c(CN(C)Cc3ccccc3)c2c1=O was tested, and the relative growth was 0.972. In the case of Cc1cc(-n2c(=O)[nH]c(=O)n(C)c2=O)ccc1Oc1ccc(SC(F)(F)F)cc1, the relative growth is reported as 1.23. For O=C(O)C[C@@H]1C=C[C@H](NC(=O)c2ccncc2)[C@@H](CO)O1, the relative growth was 0.911. In the case of O=C(C[C@@H]1C=C[C@@H](NC(=O)CN2CCOCC2)[C@@H](CO)O1)NCCc1ccccc1, the relative growth is reported as 0.907. Nc1nc(=O)c2nc(Br)n([C@H]3O[C@H]4CO[PH](O)(O)O[C@@H]4[C@@H]3O)c2[nH]1 showed a relative growth of 0.944. CC1(C)C[C@@](CCN)(Cc2ccccc2)CCO1 gave a relative growth of 1.02. In the case of Cc1ccc(S(=O)(=O)N[C@H]2CC[C@H](CC(=O)N3CCC(Cc4ccccc4)CC3)O[C@@H]2CO)cc1, the relative growth is reported as 0.849. Cn1c(=O)sn(-c2ccccc2)c1=O gave a relative growth of 1.06. With O=C(C[C@@H]1CC[C@@H]2[C@H](COC[C@H](O)CN2C(=O)c2ccccc2F)O1)N1CCN(c2ccccc2)CC1 the relative growth was 0.972. Molecule CC(=O)N(O)CCC[C@H]1NC(=O)CNC(=O)CNC(=O)CNC(=O)[C@@H](CCCN(O)C(C)=O)NC(=O)[C@@H](CCCN(O)C(C)=O)NC1=O has a relative growth of 1.12. COc1ccc(-c2coc3c(OC)c(OC)cc(O)c3c2=O)cc1 was tested, and the relative growth was 0.908. COc1cccc(-c2cn(CC[C@H]3CC[C@@H](NS(=O)(=O)c4ccccc4Cl)[C@@H](CO)O3)nn2)c1 gave a relative growth of 0.984. Molecule C[C@H]1[C@H]2CCC3C4CC=C5C[C@@H](N(C)C)CC[C@]5(C)C4CC[C@@]32CN1C (stereo partly drawn) has a relative growth of 1.18. With O=C(C[C@@H]1CC[C@@H](NC(=O)Cc2ccccn2)[C@H](CO)O1)NCCCN1CCOCC1 the relative growth was 1.04. CC(C)(C)NC[C@H](O)COc1ccccc1C1CCCC1.O=S(=O)(O)O gave a relative growth of 0.967. Work on C[C@H](CO)N1C[C@H](C)[C@H](CN(C)C(=O)c2cnccn2)Oc2cc(Br)ccc2S1(=O)=O yielded a relative growth of 1.01. Molecule COCC(=O)N[C@H]1C=C[C@H](CC(=O)N2CCCCC2)O[C@@H]1CO has a relative growth of 0.995. With CC[C@@H]1CN(C(=O)c2ccccn2)N1 the relative growth was 1.01. With COc1cccc(S(=O)(=O)Nc2ccc3c(c2)[C@H]2C[C@H](CC(=O)N4CCCCC4)O[C@H](CO)[C@H]2O3)c1 the relative growth was 0.903. Work on CCC(CC)c1ccc(O)cc1 yielded a relative growth of 0.813. In the case of Cl.NC(Cc1ccc(Cl)cc1)C(=O)O (racemic), the relative growth is reported as 1.24. With CN(C)/C=N/C(=S)N1CCOCC1 the relative growth was 1. Cc1c(C)c(C)c(CN)c(C)c1C showed a relative growth of 1.01. In the case of COc1ccc2c(-c3ccc(Cl)cc3)c(C)oc2c1, the relative growth is reported as 1.08. CC(C)(C)c1c(C(C)(C)C)c1=O gave a relative growth of 0.902. COc1cccc(NC(=O)N2C[C@@H](O)COC[C@H]3O[C@H](CC(=O)NCCCN4CCOCC4)CC[C@@H]32)c1 showed a relative growth of 0.927. For Cc1ccc(S(=O)(=O)NCC[C@H]2CC[C@@H](NS(=O)(=O)c3ccccc3Cl)[C@H](CO)O2)cc1, the relative growth was 0.938. CC(=O)Nc1ccc(O)cc1 gave a relative growth of 1.01. O=C(C[C@@H]1CC[C@H]2[C@@H](COC[C@@H](O)CN2C(=O)Nc2cccc(F)c2)O1)NCCCN1CCOCC1 showed a relative growth of 0.975. Molecule CC(=O)Oc1c(C)c(C)c2c(c1C)CCC(C)(CCCC(C)CCCC(C)CCCC(C)C)O2 (stereo not drawn) [alpha-TOCHOPHERYL ACETATE [4mM]] has a relative growth of 1.37. COc1cccc(S(=O)(=O)Nc2ccc3c(c2)[C@H]2C[C@H](CC(=O)NCc4cccc(F)c4)O[C@H](CO)[C@H]2O3)c1 showed a relative growth of 1. With CCNC(=O)C[C@@H]1C=C[C@@H](NC(=O)C2CCOCC2)[C@@H](CO)O1 the relative growth was 1.06. In the case of Nc1cccc2c1CN(C1CCC(=O)NC1=O)C2=O (stereo not drawn), the relative growth is reported as 1.19. In the case of Cc1cccc2c3c(ccc12)C1=C(C(=O)C3=O)C(C)CO1 (stereo not drawn), the relative growth is reported as 0.924. O=C(C[C@H]1C=C[C@@H](NS(=O)(=O)c2ccc(F)cc2)[C@@H](CO)O1)N1CCC(Cc2ccccc2)CC1 was tested, and the relative growth was 0.855. CCOC(=O)CSc1nc(=O)cn[nH]1 showed a relative growth of 1.16. O=C(C[C@H]1CC[C@@H]2[C@H](COC[C@H](O)CN2S(=O)(=O)c2ccc(F)cc2)O1)NCCN1CCCCC1 was tested, and the relative growth was 0.897. NCc1cn(-c2ccccc2)nc1C12CC3CC(CC(C3)C1)C2 was tested, and the relative growth was 0.11. Work on CN(C)CCCNC(=O)C[C@H]1C=C[C@H](NC(=O)Cc2cccnc2)[C@H](CO)O1 yielded a relative growth of 0.951. Molecule Cc1cc(O)c(C=O)c2c1C(=O)Oc1c(COC(=O)/C=C/C(=O)O)c(O)c(C(=O)O)c(C)c1O2 has a relative growth of 1.06. Molecule O=C(O)[C@H]1O[C@@H](Oc2c(-c3ccc(O)cc3)oc3cc(O)cc(O)c3c2=O)[C@H](O)[C@@H](O)[C@@H]1O has a relative growth of 1.08. COc1ccc(S(=O)(=O)N(C)C[C@@H]2Oc3c(NC(=O)Nc4cccc5ccccc45)cccc3C(=O)N([C@@H](C)CO)C[C@H]2C)cc1F was tested, and the relative growth was 1.06. C[C@H]1CN([C@@H](C)CO)S(=O)(=O)c2ccc(C#CCN(C)C)cc2O[C@@H]1CN(C)S(C)(=O)=O showed a relative growth of 1.17. Molecule CC(C)CC#Cc1ccc2c(c1)O[C@@H](CN(C)C(=O)Cc1cccnc1)[C@H](C)CN([C@H](C)CO)S2(=O)=O has a relative growth of 0.861. Work on N#CNC1=NCN(CCN2CCOCC2)CN1 yielded a relative growth of 0.99. Work on C[C@@H]1CC[C@@]2(OC1)O[C@H]1CC3C4CC[C@H]5C[C@@H](O)CC[C@]5(C)C4CC[C@]3(C)[C@H]1[C@@H]2C (stereo partly drawn) yielded a relative growth of 1.14. In the case of Brc1c(NC2=NCCN2)ccc2nccnc12, the relative growth is reported as 1.15. O=S(=O)(NCC[C@@H]1CC[C@H](NS(=O)(=O)c2ccccc2Cl)[C@H](CO)O1)c1ccc(F)cc1 gave a relative growth of 1.22. COC(=O)CNS(=O)(=O)c1ccsc1C(=O)OC gave a relative growth of 0.976. O=C(Cc1ccccn1)NCC[C@@H]1CC[C@@H](NC(=O)CN2CCOCC2)[C@H](CO)O1 showed a relative growth of 1.11. Molecule CN1C2CCC1CC(OC(=O)c1c[nH]c3ccccc13)C2.Cl (stereo not drawn) has a relative growth of 0.979. O=C(C[C@@H]1CC[C@@H]2[C@H](COC[C@H](O)CN2S(=O)(=O)c2ccc(Cl)cc2)O1)NCCN1CCCC1 gave a relative growth of 1.04. Molecule COc1ccc(C2=C(N)C(=O)NC2=O)cc1OC has a relative growth of 0.918. Molecule OC[C@H]1NC[C@@H](O)[C@@H](O)[C@@H]1O has a relative growth of 0.942. COc1cccc(NC(=O)N[C@H]2CC[C@H](CC(=O)N3CCN(C)CC3)O[C@@H]2CO)c1 gave a relative growth of 0.874. For CO[C@H](CN(C)C(=O)c1ccc2c(c1)OCO2)[C@@H](C)CN([C@H](C)CO)S(=O)(=O)c1ccc(F)cc1, the relative growth was 0.854. O=C(OCc1ccccc1)c1ccccc1 showed a relative growth of 0.928. Work on C[C@H]1[C@H](NC(=O)/C(=N/OC(C)(C)C(=O)O)c2csc(N)n2)C(=O)N1S(=O)(=O)O yielded a relative growth of 0.147. Work on O=C(O)C[C@H]1Nc2ccccc2NC1=O yielded a relative growth of 1.04. With NC[C@@H]1CC(=O)N(c2ccccc2)C1 the relative growth was 0.891. Molecule CCOC(=O)CC1(C)NNC(=S)NN1 has a relative growth of 0.947. For COCC(=O)N1C[C@H](C)[C@H](OC)CN(C)C(=O)c2cc(NC(=O)c3ccc(OC)cc3)ccc2OC[C@H]1C, the relative growth was 1.12. In the case of O=S1(=O)NCC2(COC2)O1, the relative growth is reported as 0.881. Molecule O=C(CCCCCCC(=O)Nc1ccccc1O)N/N=C/[C@H](O)[C@@H](O)[C@@H](O)[C@H](O)C(=O)O has a relative growth of 1.02. For O=C(NC1(C(F)(F)F)Oc2cc(Cl)c(Cl)cc2O1)C1=C(N2CCOCC2)/C(=C/c2ccccc2)CC1, the relative growth was 0.651. Cc1ccc2c(Cl)cc(Cl)c(O)c2n1 was tested, and the relative growth was 1.31.
